Protein sequences, listed by entry. Tags and fused reporters are not part of them.
UniProt P51532, whole entry: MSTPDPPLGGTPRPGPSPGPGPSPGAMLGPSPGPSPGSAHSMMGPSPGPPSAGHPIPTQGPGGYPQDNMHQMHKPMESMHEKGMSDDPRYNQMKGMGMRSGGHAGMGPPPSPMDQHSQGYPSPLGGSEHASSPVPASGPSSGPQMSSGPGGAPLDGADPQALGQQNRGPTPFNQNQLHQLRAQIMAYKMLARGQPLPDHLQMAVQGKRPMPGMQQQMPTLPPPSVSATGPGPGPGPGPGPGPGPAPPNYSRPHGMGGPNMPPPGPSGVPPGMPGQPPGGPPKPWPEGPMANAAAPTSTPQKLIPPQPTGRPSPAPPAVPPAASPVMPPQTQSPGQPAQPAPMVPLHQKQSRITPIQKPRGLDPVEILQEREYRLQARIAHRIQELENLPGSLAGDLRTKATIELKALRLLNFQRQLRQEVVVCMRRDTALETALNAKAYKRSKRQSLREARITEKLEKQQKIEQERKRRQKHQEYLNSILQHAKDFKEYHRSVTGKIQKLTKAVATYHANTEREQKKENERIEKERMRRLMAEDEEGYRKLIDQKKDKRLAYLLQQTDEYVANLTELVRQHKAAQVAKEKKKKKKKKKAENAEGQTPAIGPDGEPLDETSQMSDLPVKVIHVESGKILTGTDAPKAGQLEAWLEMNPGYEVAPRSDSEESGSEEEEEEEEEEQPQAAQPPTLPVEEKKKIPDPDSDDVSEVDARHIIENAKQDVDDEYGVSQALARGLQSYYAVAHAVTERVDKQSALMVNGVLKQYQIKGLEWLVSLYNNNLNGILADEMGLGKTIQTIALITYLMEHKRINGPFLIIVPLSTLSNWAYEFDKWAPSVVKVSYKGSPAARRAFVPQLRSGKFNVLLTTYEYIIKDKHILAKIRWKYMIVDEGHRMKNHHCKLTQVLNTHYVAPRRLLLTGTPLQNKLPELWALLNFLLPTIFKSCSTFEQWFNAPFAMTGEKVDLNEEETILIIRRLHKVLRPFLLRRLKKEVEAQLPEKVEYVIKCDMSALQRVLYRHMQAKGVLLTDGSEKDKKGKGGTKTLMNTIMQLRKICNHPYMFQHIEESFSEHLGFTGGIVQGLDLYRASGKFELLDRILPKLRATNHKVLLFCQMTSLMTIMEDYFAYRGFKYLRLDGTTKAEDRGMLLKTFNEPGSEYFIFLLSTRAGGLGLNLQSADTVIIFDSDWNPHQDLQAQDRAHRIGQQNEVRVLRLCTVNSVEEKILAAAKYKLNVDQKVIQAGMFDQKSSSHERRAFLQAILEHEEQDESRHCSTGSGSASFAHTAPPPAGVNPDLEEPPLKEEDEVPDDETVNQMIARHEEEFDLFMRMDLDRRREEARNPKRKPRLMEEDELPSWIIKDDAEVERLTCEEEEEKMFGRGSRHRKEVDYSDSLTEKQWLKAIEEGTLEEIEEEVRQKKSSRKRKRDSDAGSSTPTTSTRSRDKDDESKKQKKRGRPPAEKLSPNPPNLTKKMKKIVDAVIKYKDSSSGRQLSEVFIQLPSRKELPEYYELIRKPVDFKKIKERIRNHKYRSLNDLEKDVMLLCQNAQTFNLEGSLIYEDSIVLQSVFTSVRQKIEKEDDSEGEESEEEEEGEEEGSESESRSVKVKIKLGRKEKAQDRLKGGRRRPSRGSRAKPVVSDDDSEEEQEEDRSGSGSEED
UniProt P51531, whole entry: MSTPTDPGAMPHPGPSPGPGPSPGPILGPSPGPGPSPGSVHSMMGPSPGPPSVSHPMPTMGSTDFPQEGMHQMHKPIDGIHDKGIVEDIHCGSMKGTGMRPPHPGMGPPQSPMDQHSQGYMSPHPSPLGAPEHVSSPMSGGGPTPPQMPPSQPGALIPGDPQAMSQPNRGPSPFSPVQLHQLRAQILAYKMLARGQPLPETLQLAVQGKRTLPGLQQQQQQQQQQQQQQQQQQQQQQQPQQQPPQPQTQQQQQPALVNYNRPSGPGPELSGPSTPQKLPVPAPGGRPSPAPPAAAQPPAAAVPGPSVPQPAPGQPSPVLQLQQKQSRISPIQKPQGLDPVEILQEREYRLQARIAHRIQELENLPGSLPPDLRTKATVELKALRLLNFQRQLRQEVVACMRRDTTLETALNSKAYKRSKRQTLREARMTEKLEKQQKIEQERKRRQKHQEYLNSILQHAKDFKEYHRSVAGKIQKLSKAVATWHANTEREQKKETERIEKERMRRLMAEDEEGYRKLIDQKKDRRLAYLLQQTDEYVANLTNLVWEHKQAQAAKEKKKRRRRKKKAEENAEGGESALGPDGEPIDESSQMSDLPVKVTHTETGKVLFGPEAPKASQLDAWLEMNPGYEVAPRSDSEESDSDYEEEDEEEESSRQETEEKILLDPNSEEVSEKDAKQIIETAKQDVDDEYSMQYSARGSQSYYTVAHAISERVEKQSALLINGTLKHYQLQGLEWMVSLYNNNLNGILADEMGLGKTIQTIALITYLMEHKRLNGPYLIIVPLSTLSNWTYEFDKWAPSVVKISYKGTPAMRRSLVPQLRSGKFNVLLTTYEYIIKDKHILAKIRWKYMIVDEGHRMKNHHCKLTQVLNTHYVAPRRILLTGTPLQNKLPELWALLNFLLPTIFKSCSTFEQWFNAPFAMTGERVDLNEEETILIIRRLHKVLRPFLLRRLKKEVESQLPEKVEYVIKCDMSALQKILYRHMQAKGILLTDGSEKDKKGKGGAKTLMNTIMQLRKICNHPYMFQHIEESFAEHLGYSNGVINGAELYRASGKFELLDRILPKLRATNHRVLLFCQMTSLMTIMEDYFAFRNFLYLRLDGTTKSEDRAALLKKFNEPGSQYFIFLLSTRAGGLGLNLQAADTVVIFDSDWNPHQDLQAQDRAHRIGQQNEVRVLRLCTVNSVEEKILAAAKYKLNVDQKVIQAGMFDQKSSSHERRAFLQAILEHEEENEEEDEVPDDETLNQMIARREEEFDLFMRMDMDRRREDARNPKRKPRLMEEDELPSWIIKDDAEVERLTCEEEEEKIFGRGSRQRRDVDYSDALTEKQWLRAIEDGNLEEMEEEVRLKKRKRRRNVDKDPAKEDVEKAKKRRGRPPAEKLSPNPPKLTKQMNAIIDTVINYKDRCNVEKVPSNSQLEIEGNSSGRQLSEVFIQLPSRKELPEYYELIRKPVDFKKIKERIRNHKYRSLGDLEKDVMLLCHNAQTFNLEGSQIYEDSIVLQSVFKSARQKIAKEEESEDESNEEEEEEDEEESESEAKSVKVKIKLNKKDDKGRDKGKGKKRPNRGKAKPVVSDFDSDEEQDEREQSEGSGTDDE

In patent publication US20230150974A1 (Foghorn Therapeutics Inc., priority 2020, published 2023):

Target: T1, HiBit-BRG1 (Homo sapiens, UniProt P51532)
T1 construct: expressed in transfected cells
Assay: HiBit-BRG1 cell-based degradation assay (Nano-Glo HiBiT Lytic Detection)
Settings: HeLa, 24 h, read-out: BRG1 HiBit Degradation Maximum (%)
Experimental: (§1) Procedure: A stable HeLa cell line expressing HiBiT-BRM was generated. On day 0, 5000 cells were seeded in 40 μL of media into each well of 384-well cell culture plates. […] Subsequently plates were incubated for 24 h in a standard tissue culture incubator and equilibrated at room temperature for 15 minutes. Nano-Glo HiBiT Lytic Detection System (Promega N3050) reagent was freshly prepared and 20 ul was added to each well. Upon addition of this LgBit-containing reagent, the HiBiT and LgBiT proteins associate to form the luminescent NanoBiT luciferase. The plates were shaken for 10 minutes at room temperature and the bioluminescence read using an EnVision plate reader (PerkinElmer).
For measurement of BRG1 degradation, a stable HeLa cell line expressing HiBit-BRG1 and LgBit was generated. The same protocol as above was then followed.
(§2) The degradation % was calculated using the following formula: % degradation=100%−100%×(LumSample−LumLC)/(LumHC−LumLC). DMSO treated cells are employed as High Control (HC) and 2 μM of a known BRM/BRG1 degrader standard treated cells are employed as Low Control (LC).

**Q.** Which Dmax does the source give for `Nc1nnc(-c2ccccc2O)cc1OCCc1ccc(CNC(=O)CCCCNc2cccc3nnn(C4CCC(=O)NC4=O)c(=O)c23)cc1` (stereo not drawn) [Compound 1, N-(4-(2-((3-amino-6-(2-hydroxyphenyl)pyridazin-4-yl)oxy)ethyl)benzyl)-5-((3-(2,6-dioxopiperidin-3-yl)-4-oxo-3,4-dihydrobenzo[d][1,2,3]triazin-5-yl)amino)pentanamide] here?
**A.** The Dmax was less than 50%.

**Q.** Which Dmax does the source give for `Nc1nnc(-c2ccccc2O)cc1OCCc1ccc(CNC(=O)CCCCNc2cccc3c2CN(C2CCC(=O)NC2=O)C3=O)cc1` (stereo not drawn) [Compound 2, N-(4-(2-((3-amino-6-(2-hydroxyphenyl)pyridazin-4-yl)oxy)ethyl)benzyl)-5-((2-(2,6-dioxopiperidin-3-yl)-1-oxoisoindolin-4-yl)amino)pentanamide] here?
**A.** Its Dmax is less than 50%.

**Q.** How did the Dmax turn out when `Nc1nnc(-c2ccccc2O)cc1OCCc1ccc(CNC(=O)CCCCNc2cccc3c2C(=O)N(C2CCC(=O)NC2=O)C3=O)cc1` (stereo not drawn) [Compound 4, N-[[4-(2-[[3-amino-6-(2-hydroxyphenyl)pyridazin-4-yl]oxy]ethyl)phenyl]methyl]-5-[[2-(2,6-dioxopiperidin-3-yl)-1,3-dioxoisoindol-4-yl]amino]pentanamide] was run?
**A.** Its Dmax is less than 50%.

**Q.** How did the Dmax turn out when `Nc1nnc(-c2ccccc2O)cc1OCCc1ccc(CNC(=O)CCCCOc2ccc3c(c2)C(=O)N(C2CCC(=O)NC2=O)C3=O)cc1` (stereo not drawn) [Compound 5, N-(4-(2-((3-amino-6-(2-hydroxyphenyl)pyridazin-4-yl)oxy)ethyl)benzyl)-5-((2-(2,6-dioxopiperidin-3-yl)-1,3-dioxoisoindolin-5-yl)oxy)pentanamide] was run?
**A.** The Dmax was less than 50%.

**Q.** Which Dmax does the source give for `Nc1nnc(-c2ccccc2O)cc1OCCc1ccc(CNC(=O)NCCCOc2cccc3c2C(=O)N(C2CCC(=O)NC2=O)C3=O)cc1` (stereo not drawn) [Compound 8, 1-(4-(2-((3-amino-6-(2-hydroxyphenyl)pyridazin-4-yl)oxy)ethyl)benzyl)-3-(3-((2-(2,6-dioxopiperidin-3-yl)-1,3-dioxoisoindolin-4-yl)oxy)propyl)urea] here?
**A.** The Dmax was less than 50%.

**Q.** Which Dmax does the source give for `Nc1nnc(-c2ccccc2O)cc1OCCc1ccc(CNCCCCCOc2cccc3c2C(=O)N(C2CCC(=O)NC2=O)C3=O)cc1` (stereo not drawn) [Compound 9, 4-[[5-([[4-(2-[[3-amino-6-(2-hydroxyphenyl)pyridazin-4-yl]oxy]ethyl)phenyl]methyl]amino)pentyl]oxy]-2-(2,6-dioxopiperidin-3-yl)isoindole-1,3-dione] here?
**A.** The Dmax was less than 50%.

**Q.** How did the Dmax turn out when `Nc1nnc(-c2ccccc2O)cc1OCCc1ccc(CNC(=O)CCCCCCCCCNc2ccc3c(c2)C(=O)N(C2CCC(=O)NC2=O)C3=O)cc1` (stereo not drawn) [Compound 75, N-(4-(2-((3-amino-6-(2-hydroxyphenyl)pyridazin-4-yl)oxy)ethyl)benzyl)-10-((2-(2,6-dioxopiperidin-3-yl)-1,3-dioxoisoindolin-5-yl)amino)decanamide] was run?
**A.** Its Dmax is less than 50%.

**Q.** With `Nc1nnc(-c2ccccc2O)cc1N1CCN(C(=O)C2CC2CNC(=O)COc2cccc3c2C(=O)N(C2CCC(=O)NC2=O)C3=O)CC1` (stereo not drawn) [Compound 77, N-[(2-[4-[3-amino-6-(2-hydroxyphenyl)pyridazin-4-yl]piperazine-1-carbonyl]cyclopropyl)methyl]-2-[[2-(2,6-dioxopiperidin-3-yl)-1,3-dioxoisoindol-4-yl]oxy]acetamide] as the molecule, how does the Dmax read?
**A.** The Dmax was less than 50%.

**Q.** For `Nc1nnc(-c2ccccc2O)cc1N1CCN(C(=O)C2CC2CNC(=O)COc2ccc3c(c2)C(=O)N(C2CCC(=O)NC2=O)C3=O)CC1` (stereo not drawn) [Compound 78, N-[(2-[4-[3-amino-6-(2-hydroxyphenyl)pyridazin-4-yl]piperazine-1-carbonyl]cyclopropyl)methyl]-2-[[2-(2,6-dioxopiperidin-3-yl)-1,3-dioxoisoindol-5-yl]oxy]acetamide], which Dmax is on record?
**A.** Its Dmax is less than 50%.

**Q.** `Nc1nnc(-c2ccccc2O)cc1OCCc1ccc(CNC(=O)CCCCOc2ccc3c(c2)C(=O)N(C2CCC(=O)NC2=O)C3)cc1` (stereo not drawn) [Compound 128, N-(4-(2-((3-amino-6-(2-hydroxyphenyl)pyridazin-4-yl)oxy)ethyl)benzyl)-5-((2-(2,6-dioxopiperidin-3-yl)-3-oxoisoindolin-5-yl)oxy)pentanamide] was tested. Which Dmax did it give?
**A.** The Dmax was less than 50%.

**Q.** `Nc1nnc(-c2ccccc2O)cc1OCCc1ccc(CNC(=O)CCCCOc2ccc3c(c2)CN(C2CCC(=O)NC2=O)C3=O)cc1` (stereo not drawn) [Compound 129, N-(4-(2-((3-amino-6-(2-hydroxyphenyl)pyridazin-4-yl)oxy)ethyl)benzyl)-5-((2-(2,6-dioxopiperidin-3-yl)-1-oxoisoindolin-5-yl)oxy)pentanamide] was tested. Which Dmax did it give?
**A.** The Dmax was less than 50%.

Target: T2, HiBiT-BRM (Homo sapiens, UniProt P51531)
T2 construct: expressed in transfected cells
Assay: HiBiT-BRM cell-based degradation assay (Nano-Glo HiBiT Lytic Detection)
Settings: HeLa cells expressing HiBiT-BRM, 24 h
Experimental: as §1, §2

**Q.** How did the “BRM HiBit Degradation Maximum (%)” value turn out when `Nc1nnc(-c2ccccc2O)cc1OCCc1ccc(CNC(=O)CCCCNc2cccc3nnn(C4CCC(=O)NC4=O)c(=O)c23)cc1` (stereo not drawn) [Compound 1, N-(4-(2-((3-amino-6-(2-hydroxyphenyl)pyridazin-4-yl)oxy)ethyl)benzyl)-5-((3-(2,6-dioxopiperidin-3-yl)-4-oxo-3,4-dihydrobenzo[d][1,2,3]triazin-5-yl)amino)pentanamide] was run?
**A.** The value was “B (“B” indicates maximum degradation ≥50%)”.
